# Results taken from patent US20230100062A1, “ANTIMICROBIAL PEPTIDES” (priority 2019, published 2023).
# Key:
# Format in all cases: cell-based
# Hemolysis assay = conditions: 10% (vol/vol) suspension, pH 7.2; Human erythrocytes, 1 h at room temperature; read-out: HD30, median hemolytic doses to achieve 50% lysis
# Method: Hemolysis assay. Hemolysis was determined using human erythrocytes sourced commercially from Cambridge Bioscience Ltd. and used within two days. 10% (vol/vol) suspensions of human erythrocytes were incubated with NI01, its derivatives or antibiotics. The cells were rinsed four times in 10 mM phosphate buffer saline (PBS, GibcoTM), pH 7.2, by repeated centrifugation and re-suspension (3 min at 3000×g). The cells were then incubated at room temperature for 1 h in either deionized water (fully hemolysed control), PBS, or with a corresponding antimicrobial agent in PBS. After centrifugation at 10,000×g for 5 min, the supernatant was separated from the pellet, and the absorbance was measured at 550 nm using a SpectraMax i3× Multi-Mode Microplate Reader (Molecular Devices). Absorbance of the suspension treated with deionized water defined complete hemolysis. The values given in Table S2 correspond to concentrations needed to lyse half of the sample population (50% lysis of erythrocytes) and are expressed as median hemolytic doses—HD50.
# S. aureus (ATCC 6538) = conditions: 24 h at 37° C.
# Method: (§1) Minimum Inhibitory Concentrations assay. Minimum inhibitory concentrations (MICs) were determined by broth microdilution on P. aeruginosa, E. coli, S. aureus, M. luteus, B. subtilis, S. typhimurium and K. pneumoniae according to the Clinical and Laboratory Standards Institute. Typically, 100 μL of 0.5-1×10^6 CFU per ml of each bacterium in Mueller Hinton media broth (Oxoid) were incubated in 96-well microtiter plates with 100 μL of serial two-fold dilutions of the corresponding antimicrobial agent (from 100 to 0 μM) at 37° C. on a 3D orbital shaker. The absorbance was measured after the addition of NI01, its derivatives or an antibiotic at 600 nm using a SpectraMax i3× Multi-Mode Microplate Reader (Molecular Devices). MICs were defined as the lowest protein concentration that inhibited visible bacterial growth after 24 h at 37° C.
# [1] = system: P. aeruginosa (ATCC 27853); conditions: 24 h at 37° C.
# Method: as §1
# E. coli (ATCC 15597) = conditions: 24 h at 37° C.
# Method: as §1
# S. typhimurium (DA6192) = conditions: 24 h at 37° C.
# Method: as §1
# B. subtilis (ATCC 6633) = conditions: 24 h at 37° C.
# Method: as §1
# M. luteus (ATCC 49732) = conditions: 24 h at 37° C.
# Method: as §1
smiles,measurement,setting,value
CC[C@H](C)[C@H](NC(=O)CN)C(=O)NCC(=O)N[C@@H](C)C(=O)N[C@H](C(=O)N[C@@H](CC(C)C)C(=O)N[C@@H](CCCCN)C(=O)N[C@H](C(=O)N[C@@H](CC(C)C)C(=O)N[C@H](C(=O)N[C@H](C(=O)NCC(=O)N[C@@H](CC(C)C)C(=O)N1CCC[C@H]1C(=O)N[C@@H](C)C(=O)N[C@@H](CC(C)C)C(=O)N[C@H](C(=O)N[C@@H](CO)C(=O)N[C@@H](Cc1c[nH]c2ccccc12)C(=O)N[C@H](C(=O)N[C@@H](CCCCN)C(=O)N[C@@H](CCCNC(=N)N)C(=O)N[C@@H](CCCCN)C(=O)N[C@@H](CCCNC(=N)N)C(=O)N[C@@H](CCC(N)=O)C(=O)N[C@@H](CCC(N)=O)C(N)=O)[C@@H](C)CC)[C@@H](C)CC)[C@@H](C)O)[C@@H](C)O)C(C)C)C(C)C [melittin],HC50 at 1 h,Hemolysis assay,5 µg/mL
same,Minimum Inhibitory Concentration,S. aureus (ATCC 6538),3 µg/mL
same,Minimum Inhibitory Concentration,[1],25 µg/mL
same,Minimum Inhibitory Concentration,E. coli (ATCC 15597),7 µg/mL
same,Minimum Inhibitory Concentration,S. typhimurium (DA6192),9 µg/mL
same,Minimum Inhibitory Concentration,B. subtilis (ATCC 6633),9 µg/mL
same,Minimum Inhibitory Concentration,M. luteus (ATCC 49732),2 µg/mL
